Reference: ChEMBL document CHEMBL1156503, “Long-acting kappa opioid antagonists disrupt receptor signaling and produce noncompetitive effects by activating c-Jun N-terminal kinase” (J Biol Chem, 2007)
Calls of active or inactive are those of the source. The rule behind the calls is not given here.

The chains behind the UniProt entries cited, without tags or fusion partners. Where a name states a change or a piece, a line headed by the entry shows the natural chain unless it says otherwise.
UniProt P45983: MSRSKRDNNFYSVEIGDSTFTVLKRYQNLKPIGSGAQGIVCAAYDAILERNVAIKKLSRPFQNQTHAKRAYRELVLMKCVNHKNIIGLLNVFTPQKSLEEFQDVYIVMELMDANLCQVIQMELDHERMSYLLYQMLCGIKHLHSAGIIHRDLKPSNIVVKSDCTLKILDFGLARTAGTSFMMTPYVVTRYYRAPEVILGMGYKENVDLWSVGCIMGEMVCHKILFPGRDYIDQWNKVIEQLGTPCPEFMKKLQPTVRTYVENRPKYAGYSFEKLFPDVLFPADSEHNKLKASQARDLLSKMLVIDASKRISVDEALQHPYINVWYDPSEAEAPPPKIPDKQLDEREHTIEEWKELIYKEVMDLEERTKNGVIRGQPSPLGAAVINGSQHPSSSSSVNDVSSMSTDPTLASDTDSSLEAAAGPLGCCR
UniProt P53779: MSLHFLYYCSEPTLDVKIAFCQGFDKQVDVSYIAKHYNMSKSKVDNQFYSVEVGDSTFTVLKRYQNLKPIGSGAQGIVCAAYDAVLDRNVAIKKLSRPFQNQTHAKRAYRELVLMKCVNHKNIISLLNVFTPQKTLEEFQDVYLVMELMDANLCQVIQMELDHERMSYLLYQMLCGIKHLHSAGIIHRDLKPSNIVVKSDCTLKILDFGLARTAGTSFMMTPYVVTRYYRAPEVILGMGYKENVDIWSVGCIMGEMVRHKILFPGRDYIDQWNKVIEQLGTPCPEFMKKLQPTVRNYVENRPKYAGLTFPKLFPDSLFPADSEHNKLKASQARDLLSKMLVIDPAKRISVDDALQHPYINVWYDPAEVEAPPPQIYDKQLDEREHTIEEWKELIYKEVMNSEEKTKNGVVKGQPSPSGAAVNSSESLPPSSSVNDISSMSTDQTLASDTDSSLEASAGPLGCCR

Assays:
[1] = biological target: T1, c-Jun N-terminal kinase, JNK (Homo sapiens, UniProt P45983+P53779+P45984); assay: Increase of JNK phosphorylation in U50488 treated HEK293 cells expressing GFP tagged kappa opioid receptor; assay type: cell-based
Outline: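 KOR-GFP HEK293 cells under G418, serum-starved 18 h, then concentration series for 1 h at 37 °C. Lysate (40 μg protein) immunoblotted for phospho-JNK, p54 and p46 summed, normalised to basal (100%). EC50 from nonlinear regression; n = 3–5 separate cultures.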

[2] = biological target: T1, c-Jun N-terminal kinase, JNK; assay: Increase of JNK phosphorylation in U50488 treated untransfected HEK293 cells at 10 uM after 1 hr; assay type: cell-based
Outline: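 Untransfected HEK293 cells grown without G418, serum-starved 18 h, then ligand 10 μM for 1 h at 37 °C. Phospho-JNK immunoblot quantified as % of basal untreated control, n = 3–7.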

CN(C(=O)Cc1ccc(Cl)c(Cl)c1)C1CCCCC1N1CCCC1 (configuration not stated)
Intrinsic activity [1]: 1
Activity [2]: inactive
